These results are taken from paper PMC8805405, “A universal in silico V(D)J recombination strategy for developing humanized monoclonal antibodies” (Journal of Nanobiotechnology, 2022).

The chains behind the UniProt entries cited, without tags or fusion partners. Residues count along the entry.
UniProt P01375, 77-233: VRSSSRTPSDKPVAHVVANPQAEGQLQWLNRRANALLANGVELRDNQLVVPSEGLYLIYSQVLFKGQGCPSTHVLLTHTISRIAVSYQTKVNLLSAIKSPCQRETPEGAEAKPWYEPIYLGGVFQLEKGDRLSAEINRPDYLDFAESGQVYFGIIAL

This assay deals with T1, recombinant human TNF-α (Homo sapiens, UniProt P01375).
T1 construct: tumor necrosis factor alpha, human, recombinant; also called tumor necrosis factor (TNF)-α; source: bought: R&D Systems
The assay is described as follows: BLI; BLItz; human TNF-α (5 μg/mL in 10 mM acetate, pH 5) immobilised on AR2G biosensors by EDC/s-NHS; various concentrations of antibody at room temperature; global fit, BLItz Pro 1.2. As to conditions: both partners purified. For orientation: Biolayer interferometry detects binding as a change in optical thickness at a sensor tip.

B1: recombinant Remicade (antibody, V domains shown)
VH: EVKLEESGGGLVQPGGSMKLSCVASGFIFSNHWMNWVRQSPEKGLEWVAEIRSKSINSATHYAESVKGRFTISRDDSKSAVYLQMTDLRTEDTGVYYCSRNYYGSTYDYWGQGTTLTVSS
VL: DILLTQSPAILSVSPGERVSFSCRASQFVGSSIHWYQQRTNGSPRLLIKYASESMSGIPSRFSGSGSGTDFTLSINTVESEDIADYYCQQSHSWPFTFGSGTNLEVK
notes: heavy chain of Remicade (mouse VH, human constant region); light chain of Remicade (mouse VL, human constant region); Chimeric whole antibody made recombinantly here (detected with anti-human IgG-Fc); also called rRemicade; parental chimeric mAb; source: Expi293, transfected, purified (protein A sepharose)
On to B1, for which the dissociation constant (Kd) (as a rule, the equilibrium constant for the complex coming apart) worked out at 0.513 nM; the off-rate constant (koff) (in general, the rate constant with which the complex falls apart) is 9.53e-05 s⁻¹; the kon (in general, the rate constant with which the complex forms) stood at 186000 M⁻¹ s⁻¹.
